## Antibody variant affinities, Ab-91 heavy chain, assay 2

Target: peptide PDVDLGDISGINAS, taken from heptad repeat 2 (HR2) of SARS-CoV-2 spike.

Parent: Ab-91, a human scFv built as VL, the linker GGGGSGGGGSGGGGS, VH. Only the CDRs of the heavy chain vary.
VL: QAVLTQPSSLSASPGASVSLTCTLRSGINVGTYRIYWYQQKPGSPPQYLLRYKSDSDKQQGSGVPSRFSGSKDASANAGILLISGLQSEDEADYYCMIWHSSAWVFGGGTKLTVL
VH: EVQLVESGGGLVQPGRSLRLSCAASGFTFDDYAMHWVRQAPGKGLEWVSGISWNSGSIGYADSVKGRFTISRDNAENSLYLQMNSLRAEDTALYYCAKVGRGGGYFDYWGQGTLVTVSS

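The parent was found by panning a naive human phage display library on the peptide. AAYL51 was designed without a model: most single CDR substitutions and a random sample of double and triple ones. The scFvs were displayed on barcoded MATa yeast, the peptide on MATalpha yeast. The frequency of each diploid, read from paired DNA barcodes, reflects how well the two displayed proteins bind. Scores were corrected for input abundance and mapped to Kd with protein pairs of known affinity run in the same pool. Mating was done three times.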

Substitutions are numbered in sequence along the VH above, starting at 1 (not Kabat). Numbers give log10(Kd / nM), so 0 is 1 nM and 3 is 1 µM. Smaller is tighter. A mean of the replicates is given; it leaves out those without a signal. "nd" marks a missing value. The strain was present, yet no cells mated with the target were sequenced in that replicate, which points to weak or no binding.

changes,"log10 Kd, replicates","log10 Kd (nM), mean",signal with controls
G26D+H35T+R101A,nd 4.57 nd,4.57,5 of 9 (5.30)
S52A+S57G+G100I,nd 3.94 4.25,4.09,0 of 9
D31T+S52H,4.92 4.63 nd,4.77,3 of 9 (4.76)
A61Y+F106T+Y108F,nd nd nd,nd,1 of 9 (4.08)
F29M+Y60C,nd 4.87 5.35,5.11,2 of 9 (4.88)
G26D+D31E+D62C,1.67 1.67 1.41,1.58,2 of 9 (4.13)
W53K+F106R+Y108F,nd nd nd,nd,0 of 9
D31L+G59D+G104P,nd nd nd,nd,2 of 9 (4.65)
F27A+A33C+Y105D,nd nd nd,nd,1 of 9 (5.66)
I51H+S55V+D107V,nd nd nd,nd,1 of 9 (4.46)
D31P+V99Y+D107H,nd nd nd,nd,1 of 9 (4.12)
V64D+R101Q,nd 2.71 nd,2.71,1 of 9 (2.63)
N54M+G56Q,4.11 nd 3.91,4.01,1 of 9 (5.13)
D30Q+S55W+D62R,nd 4.61 nd,4.61,0 of 9
D30L+V99I+Y105T,3.94 nd nd,3.94,2 of 9 (3.79)
F27W+F29D+D107H,nd 5.00 4.23,4.62,3 of 9 (4.13)
A33R+W53C+Y108L,4.31 5.49 nd,4.90,1 of 9 (4.16)
I51F+V99C+G102H,nd nd nd,nd,2 of 9 (4.18)

Further variants, results first:

"log10 Kd, replicates","log10 Kd (nM), mean",signal with controls,changes
2.86 2.40 1.97,2.41,1 of 9 (4.18),G100F+G102S+D107K
3.46 4.06 3.86,3.79,6 of 9 (4.46),F29L+S63W+V99N
3.40 2.82 3.24,3.15,3 of 9 (4.28),G56C+Y60I+S63C
4.84 nd nd,4.84,3 of 9 (4.52),W53Y+F106A+D107Q
nd 5.43 nd,5.43,4 of 9 (4.78),M34N+H35N+V64H
nd nd nd,nd,2 of 9 (4.67),T28A+S52V+G102K
nd nd 3.18,3.18,1 of 9 (4.04),T28L+A61S+V99H
nd nd nd,nd,2 of 9 (4.18),S55R+G59N+K65D
nd 4.06 nd,4.06,0 of 9,Y32N+K65V+G104A
nd nd nd,nd,0 of 9,V64L+G102C
4.64 5.21 5.06,4.97,5 of 9 (5.47),I58S+G59P+R101C
4.73 5.18 nd,4.96,0 of 9,F29T+M34T+Y105K
nd nd nd,nd,6 of 9 (5.41),F27Y+D31V+V99S
nd nd nd,nd,0 of 9,Y32M+A33W+I51N
nd 4.21 nd,4.21,1 of 9 (4.33),G56H+I58W+Y60D
nd nd nd,nd,2 of 9 (3.19),F29Q+D30M+G103D
nd nd 5.00,5.00,2 of 9 (4.32),A33T+S57N+Y108S
nd nd nd,nd,0 of 9,T28I+H35Q+D62N

4 of these entries, quoted again:

changes,"log10 Kd, replicates","log10 Kd (nM), mean",signal with controls
D30L+V99I+Y105T,3.94 nd nd,3.94,2 of 9 (3.79)
G100F+G102S+D107K,2.86 2.40 1.97,2.41,1 of 9 (4.18)
T28A+S52V+G102K,nd nd nd,nd,2 of 9 (4.67)
A33T+S57N+Y108S,nd nd 5.00,5.00,2 of 9 (4.32)

For reference, the parent read 1.86 as the reference entry and 0.88 as a member of this library. Empty control strains, which show no peptide, gave a signal in 21% of pairings with library AAYL51; the median was 4.54 and 95% of these signals were weaker than 3.26. No background was subtracted. The control count says in how many pairings with the empty strains this scFv gave a signal, with their mean in brackets.

Source: Engelhart et al. 2022 (doi:10.1038/s41597-022-01779-4), MIT Lincoln Laboratory and A-Alpha Bio; data file from the FLAb repository.